The test system of one assay is AR-FL protein. Briefly: Androgen receptor protein expression (western blot) in 22Rv1: AR-FL. The assay is classed as cell-based, human. The following applies: 22Rv1, 6 μM, 48 h; western blot quantification. The method, then:
(§1) After 48 h, cell were lysed using cell extraction buffer (Life Technologies #FNN0011) for western blot. […] The membrane is then incubation for 1 hour in blocking buffer (5% milk in 20 mM Tris, 150 mM NaCl, pH 7.5, 0.05% Tween 20 [TBS-T]). After this incubation, the primary antibody is added and incubated overnight at 4° C. After washing, the membrane was incubated with the secondary antibody for 1 h. Visualization of the bands was performed using the femto maximum sensitivity substrate reagent and the luminescence signal recorded with the Fusion FX7 (Vilber). For protein quantification, InageJ was used.

For the next assay, the system named is AR-V7 protein. The assay can be described thus: Androgen receptor protein expression (western blot) in 22Rv1: AR-V7. The assay is classed as cell-based, human. The following applies: 22Rv1, 6 μM, 48 h; western blot quantification. The protocol: as §1

In the assay with AR-FL protein, `CNC(=O)c1ccc(N2C(=S)N(c3ccc(C#N)c(C(F)(F)F)c3)C(=O)C2(C)C)cc1F` [enzalutamide, reference compound] registered an AR-FL protein level of 0.886. This molecule came in with an AR-V7 protein level with AR-V7 protein of 0.704.

(Values after patent US20240368145A1, “METHODS FOR TREATING CANCER” (IMMUNIC AG, priority 2021, published 2024).)
